This data set concerns OR6 cells. Briefly: Secondary assay cell viability (CellTiter-Glo). Conditions: 48 hours.

As for `CC[C@H](C)C(=O)O[C@H]1C[C@@H](C)C=C2C=C[C@H](C)[C@H](CC[C@@H]3C[C@@H](O)CC(=O)O3)[C@H]21` [Lovastatin, lovastatin], the “cytotoxicity (in words)” value is “significantly cytotoxic at 10, 50, and 100 μM”.

Source of the values: patent publication US20120094939A1, “ANTI-VIRAL COMPOUNDS, COMPOSITIONS AND METHODS” (priority 2007, published 2012).
